Patent publication US10301261B2, “Substituted indoles as modulators of ROR-gamma” (Vitae Pharmaceuticals, LLC, priority 2015, dated 2019)

Amino acid sequences for entries named in this document (tags omitted). Chains listed by the source or under a name are the forms on record and can include a tag or linker. Residues count along the entry.
UniProt P51449, 269-508: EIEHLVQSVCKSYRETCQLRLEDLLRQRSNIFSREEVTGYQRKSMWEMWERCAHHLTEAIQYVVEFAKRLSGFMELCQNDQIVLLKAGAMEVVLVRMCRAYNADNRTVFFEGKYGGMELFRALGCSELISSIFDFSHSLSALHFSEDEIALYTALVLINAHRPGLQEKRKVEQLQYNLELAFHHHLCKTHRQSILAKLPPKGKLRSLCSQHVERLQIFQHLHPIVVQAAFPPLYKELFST
UniProt P51449, other isoform, or with tags, fused parts or gaps: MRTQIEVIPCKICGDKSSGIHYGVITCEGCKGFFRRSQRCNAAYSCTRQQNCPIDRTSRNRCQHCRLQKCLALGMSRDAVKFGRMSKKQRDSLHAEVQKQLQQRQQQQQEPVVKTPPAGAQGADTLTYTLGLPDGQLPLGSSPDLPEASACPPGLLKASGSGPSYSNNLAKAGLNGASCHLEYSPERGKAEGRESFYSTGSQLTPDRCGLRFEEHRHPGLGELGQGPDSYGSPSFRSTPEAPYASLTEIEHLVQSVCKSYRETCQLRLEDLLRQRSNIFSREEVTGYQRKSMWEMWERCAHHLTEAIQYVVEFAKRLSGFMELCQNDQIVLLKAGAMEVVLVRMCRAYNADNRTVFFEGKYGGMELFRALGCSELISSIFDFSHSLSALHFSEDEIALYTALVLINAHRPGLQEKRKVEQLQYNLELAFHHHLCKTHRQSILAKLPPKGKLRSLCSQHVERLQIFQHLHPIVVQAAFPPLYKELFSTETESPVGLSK

Experiments:
[1] = target: recombinant RORγ Ligand Binding Domain (LBD) protein (Homo sapiens (Human), UniProt P51449); test: Radio-Ligand RORγ Binding Assay (Assay 1); conditions: radio-ligand 25-hydroxy [26,27-3H]-cholesterol competition
Procedure: Radio-Ligand RORγ Binding Assay (Assay 1)
Compounds described herein were tested for ability to bind to RORγ in a cell-free competition assay with commercially available radio-ligand (RL), 25-hydroxy [26,27-^3H]-cholesterol (PerkinElmer, Cat. # NET674250UC), for a ligand binding site on a recombinant RORγ Ligand Binding Domain (LBD) protein expressed as a 6×His-Glutathione-S-Transferase (GST) fusion. […] The plate was shaken at 700 rpm for 20 min and incubated for 10 min at rt, after which 40 μL of poly-Lys YSi SPA beads (PerkinElmer, Cat. # RPNQ0010) were added to achieve 50 μg of the beads per well. The plate was incubated on an orbital shaker for 20 min and then for 10 min without agitation at rt. SPA signal for tritium beta radiation was registered on PerkinElmer Microbeta plate reader. […] The percent inhibition vs. concentration data were fit into a four-parameter model, and IC50 values were calculated from the fit as the concentrations corresponding to the inflection points on the dose-response curves. […]

[2] = target: full-length RORγt in Jurkat cells (Homo sapiens (Human), UniProt P51449); test: RORγt 5×RORE Assay in Jurkat Cells (Assay 2); assay type: cell-based; conditions: RORγt 5×RORE Nanoluc reporter
Procedure: [formula] RORγt 5×RORE Assay in Jurkat Cells (Assay 2)
Compounds described herein were tested for RORγ inverse agonist activity in a cell-based, transcriptional activity assay. […] (Promega, Cat. # N1021) using KpnI and HindIII restriction sites. […] Tested compounds were added to the cells in the same media (final concentration of DMSO was 0.1% (v/v)), and the plates were incubated at 37° C./5% CO2 for 16-18 hrs. Luciferase activity in the conditioned supernatants was determined with NanoGlo® assay reagents (Promega, Cat.# N1130).

Ki [1]: < 100 nM
IC50 [2]: 100 to 1000 nM
SMILES: CCS(=O)(=O)c1ccc(CNC(=O)c2ccc3c(c2)nc(O[C@H]2CC[C@H](C(F)(F)F)CC2)n3C2CC2)cc1 [BE-3, 1-cyclopropyl-N-(4-(ethylsulfonyl)benzyl)-2-(((1r,4r)-4-(trifluoromethyl)cyclohexyl)oxy)-1H-benzo[d]imidazole-5-carboxamide]
